Test results from article PMC4935942, “Efficient Inhibition of Hepatitis B Virus Infection by a preS1-binding Peptide” (Scientific Reports, 2016).
pIC50: −log10 of the molar value.

What follows are compounds tested on interaction between preS1/2-48^myr-FITC and 4B10 (assay: Peptide competition assay: interaction between preS1/2-48^myr-FITC and immobilized 4B10). Settings: read-out: IC50, 50% inhibition of the interaction between preS1/2-48^myr-FITC and 4B10; immobilized N-biotinylated 4B10; 10 μM preS1/2-48^myr-FITC; competitor at 1.25-, 2.5-, or 5-fold molar ratio; triplicate, repeated at least three times; calculated from data of Fig. 2B.

Row | SMILES | pIC50
1 | CCCCCCCCCCCCCC(=O)NCC(=O)N[C@H](C(=O)N[C@@H](CC(N)=O)C(=O)N[C@@H](CC(C)C)C(=O)N[C@@H](CO)C(=O)N[C@H](C(=O)N[C@@H](Cc1ccccc1)C(=O)N[C@@H](Cc1ccccc1)C(=O)N1CCC[C@H]1C(=O)N[C@@H](CC(=O)O)C(=O)N[C@@H](Cc1c[nH]cn1)C(=O)N[C@@H](CCC(N)=O)C(=O)N[C@@H](CC(C)C)C(=O)N[C@@H](CC(=O)O)C(=O)N1CCC[C@H]1C(=O)N[C@@H](C)C(=O)N[C@@H](Cc1ccccc1)C(=O)NCC(=O)N[C@@H](C)C(=O)N[C@@H](CC(N)=O)C(=O)N[C@@H](CO)C(=O)N[C@@H](CC(N)=O)C(=O)N[C@@H](CC(N)=O)C(=O)N1CCC[C@H]1C(=O)N[C@@H](CC(=O)O)C(=O)N[C@@H](Cc1c[nH]c2ccccc12)C(=O)N[C@@H](CC(=O)O)C(=O)N[C@@H](Cc1ccccc1)C(=O)N[C@@H](CC(N)=O)C(=O)N1CCC[C@H]1C(=O)N[C@@H](CC(N)=O)C(=O)N[C@@H](CCCCN)C(=O)N[C@@H](CC(=O)O)C(=O)N[C@@H](Cc1c[nH]cn1)C(=O)N[C@@H](Cc1c[nH]c2ccccc12)C(=O)N1CCC[C@H]1C(=O)N[C@@H](CCC(=O)O)C(=O)N[C@@H](C)C(=O)N[C@@H](CC(N)=O)C(=O)N[C@@H](CCCCN)C(=O)N[C@H](C(=O)NCC(N)=O)C(C)C)C(C)C)[C@@H](C)O [Δ8-12] | 4.81
2 | CCCCCCCCCCCCCC(=O)NCC(=O)N[C@H](C(=O)N[C@@H](CC(N)=O)C(=O)N[C@@H](CC(C)C)C(=O)N[C@@H](CO)C(=O)N[C@H](C(=O)N1CCC[C@H]1C(=O)N[C@@H](CC(N)=O)C(=O)N1CCC[C@H]1C(=O)N[C@@H](CC(C)C)C(=O)NCC(=O)N[C@@H](CCC(N)=O)C(=O)N[C@@H](CC(C)C)C(=O)N[C@@H](CC(=O)O)C(=O)N1CCC[C@H]1C(=O)N[C@@H](C)C(=O)N[C@@H](Cc1ccccc1)C(=O)NCC(=O)N[C@@H](C)C(=O)N[C@@H](CC(N)=O)C(=O)N[C@@H](CO)C(=O)N[C@@H](CC(N)=O)C(=O)N[C@@H](CC(N)=O)C(=O)N1CCC[C@H]1C(=O)N[C@@H](CC(=O)O)C(=O)N[C@@H](Cc1c[nH]c2ccccc12)C(=O)N[C@@H](CC(=O)O)C(=O)N[C@@H](Cc1ccccc1)C(=O)N[C@@H](CC(N)=O)C(=O)N1CCC[C@H]1C(=O)N[C@@H](CC(N)=O)C(=O)N[C@@H](CCCCN)C(=O)N[C@@H](CC(=O)O)C(=O)N[C@@H](Cc1c[nH]cn1)C(=O)N[C@@H](Cc1c[nH]c2ccccc12)C(=O)N1CCC[C@H]1C(=O)N[C@@H](CCC(=O)O)C(=O)N[C@@H](C)C(=O)N[C@@H](CC(N)=O)C(=O)N[C@@H](CCCCN)C(=O)N[C@H](C(=O)NCC(N)=O)C(C)C)C(C)C)[C@@H](C)O [Δ13-17] | 4.49
3 | CCCCCCCCCCCCCC(=O)NCC(=O)N[C@H](C(=O)N[C@@H](CC(N)=O)C(=O)N[C@@H](CC(C)C)C(=O)N[C@@H](CO)C(=O)N[C@H](C(=O)N1CCC[C@H]1C(=O)N[C@@H](CC(N)=O)C(=O)N1CCC[C@H]1C(=O)N[C@@H](CC(C)C)C(=O)NCC(=O)N[C@@H](Cc1ccccc1)C(=O)N[C@@H](Cc1ccccc1)C(=O)N1CCC[C@H]1C(=O)N[C@@H](CC(=O)O)C(=O)N[C@@H](Cc1c[nH]cn1)C(=O)N[C@@H](Cc1ccccc1)C(=O)NCC(=O)N[C@@H](C)C(=O)N[C@@H](CC(N)=O)C(=O)N[C@@H](CO)C(=O)N[C@@H](CC(N)=O)C(=O)N[C@@H](CC(N)=O)C(=O)N1CCC[C@H]1C(=O)N[C@@H](CC(=O)O)C(=O)N[C@@H](Cc1c[nH]c2ccccc12)C(=O)N[C@@H](CC(=O)O)C(=O)N[C@@H](Cc1ccccc1)C(=O)N[C@@H](CC(N)=O)C(=O)N1CCC[C@H]1C(=O)N[C@@H](CC(N)=O)C(=O)N[C@@H](CCCCN)C(=O)N[C@@H](CC(=O)O)C(=O)N[C@@H](Cc1c[nH]cn1)C(=O)N[C@@H](Cc1c[nH]c2ccccc12)C(=O)N1CCC[C@H]1C(=O)N[C@@H](CCC(=O)O)C(=O)N[C@@H](C)C(=O)N[C@@H](CC(N)=O)C(=O)N[C@@H](CCCCN)C(=O)N[C@H](C(=O)NCC(N)=O)C(C)C)C(C)C)[C@@H](C)O [Δ18-22] | 4.56
4 | CCCCCCCCCCCCCC(=O)NCC(=O)N[C@H](C(=O)N[C@@H](CC(N)=O)C(=O)N[C@@H](CC(C)C)C(=O)N[C@@H](CO)C(=O)N[C@H](C(=O)N1CCC[C@H]1C(=O)N[C@@H](CC(N)=O)C(=O)N1CCC[C@H]1C(=O)N[C@@H](CC(C)C)C(=O)NCC(=O)N[C@@H](Cc1ccccc1)C(=O)N[C@@H](Cc1ccccc1)C(=O)N1CCC[C@H]1C(=O)N[C@@H](CC(=O)O)C(=O)N[C@@H](Cc1c[nH]cn1)C(=O)N[C@@H](CCC(N)=O)C(=O)N[C@@H](CC(C)C)C(=O)N[C@@H](CC(=O)O)C(=O)N1CCC[C@H]1C(=O)N[C@@H](C)C(=O)N[C@@H](CC(N)=O)C(=O)N[C@@H](CC(N)=O)C(=O)N1CCC[C@H]1C(=O)N[C@@H](CC(=O)O)C(=O)N[C@@H](Cc1c[nH]c2ccccc12)C(=O)N[C@@H](CC(=O)O)C(=O)N[C@@H](Cc1ccccc1)C(=O)N[C@@H](CC(N)=O)C(=O)N1CCC[C@H]1C(=O)N[C@@H](CC(N)=O)C(=O)N[C@@H](CCCCN)C(=O)N[C@@H](CC(=O)O)C(=O)N[C@@H](Cc1c[nH]cn1)C(=O)N[C@@H](Cc1c[nH]c2ccccc12)C(=O)N1CCC[C@H]1C(=O)N[C@@H](CCC(=O)O)C(=O)N[C@@H](C)C(=O)N[C@@H](CC(N)=O)C(=O)N[C@@H](CCCCN)C(=O)N[C@H](C(=O)NCC(N)=O)C(C)C)C(C)C)[C@@H](C)O [Δ23-27] | 4.54
